Laboratory results as given in patent US7354728B2, “Coactivation of nuclear receptors” (N.V. Organon, priority 2000, dated 2008).

By UniProt entry, the sequences of proteins in these tests, tags left out.
UniProt Q92731, whole entry: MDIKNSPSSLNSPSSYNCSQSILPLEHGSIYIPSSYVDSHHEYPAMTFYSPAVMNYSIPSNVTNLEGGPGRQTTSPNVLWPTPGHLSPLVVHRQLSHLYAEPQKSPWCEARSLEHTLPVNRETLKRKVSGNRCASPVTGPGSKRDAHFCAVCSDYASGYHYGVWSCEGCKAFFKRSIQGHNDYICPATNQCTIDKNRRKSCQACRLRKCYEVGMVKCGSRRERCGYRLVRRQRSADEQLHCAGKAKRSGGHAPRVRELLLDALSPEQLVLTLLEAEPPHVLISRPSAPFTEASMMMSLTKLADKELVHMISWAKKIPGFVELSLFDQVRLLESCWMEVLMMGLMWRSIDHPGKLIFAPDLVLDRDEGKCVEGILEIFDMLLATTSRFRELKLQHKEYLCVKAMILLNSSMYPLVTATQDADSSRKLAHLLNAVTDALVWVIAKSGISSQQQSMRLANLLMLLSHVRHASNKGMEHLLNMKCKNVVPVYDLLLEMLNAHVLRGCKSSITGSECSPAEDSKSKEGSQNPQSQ

How the values were obtained:
ERβ = molecular target: T1, ERβ (Homo sapiens, UniProt Q92731); experiment: Transient transfection of U-2 OS cells with ERβ and ERE luciferase reporter, with or without COASTER; type: cell-based; conditions: 10^−7 M ligand
T1 construct: expressed in transfected cells; host or cells: U-2 OS

ERβ and COASTER = ERβ and COASTER (Homo sapiens, UniProt Q92731); experiment: Yeast two-hybrid assay, β-galactosidase reporter, ERβ with COASTER amino acids 1-234; conditions: yeast AH109, pGBT9.ERβ + pACT2.COASTERΔ; 10^−8 M 17β-estradiol, 10^−5 M raloxifen

Structure (SMILES): O=C(c1ccc(OCCN2CCCCC2)cc1)c1c(-c2ccc(O)cc2)sc2cc(O)ccc12 [raloxifen]
- ERβ-mediated transcription with cotransfected COASTER, ERE reporter (FIG. 4) (ERβ): not when ERβ is present as the estrogen receptor
- β-galactosidase reporter activity (ERβ-COASTER interaction, FIG. 3) (ERβ and COASTER): not able to induce
